# Yeast mating assay 2: variants of the scFv Ab-95

Antigen: PDVDLGDISGINAS, a 14-residue peptide of the SARS-CoV-2 spike HR2 region.

Parent: Ab-95, a human scFv built as VH, the linker GGGGSGGGGSGGGGS, VL. Only the CDRs of the light chain vary.
VH: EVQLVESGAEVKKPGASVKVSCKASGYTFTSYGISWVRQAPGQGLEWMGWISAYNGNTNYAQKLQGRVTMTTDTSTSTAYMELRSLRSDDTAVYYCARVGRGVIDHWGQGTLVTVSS
VL: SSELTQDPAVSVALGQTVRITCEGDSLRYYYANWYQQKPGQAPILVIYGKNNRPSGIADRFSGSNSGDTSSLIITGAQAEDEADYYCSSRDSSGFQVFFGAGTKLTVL

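The starting antibody came from a phage panning campaign against this peptide. Library AAYL52 holds single substitutions and randomly drawn double and triple substitutions in the CDRs. The assay is AlphaSeq: two haploid yeast populations carry antibody and antigen on their surface. Binding brings cells together so that they mate, and sequencing counts the barcode pairs among the diploids. A regression on co-assayed BCL2-family reference pairs converts the normalised counts of each replicate to an apparent Kd. Each pool was mated in three replicate cultures.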

Substitutions are numbered in sequence along the VL above, starting at 1 (not Kabat). Scale: log10 of Kd in nM, estimated from mating counts; low values are strong binders. "ND" marks a missing value. The strain was present, yet no cells mated with the target were sequenced in that replicate, which points to weak or no binding. Nonspecific signal, from three strains lacking the peptide, appeared in 28% of pairings of library AAYL52, centred on 3.91 (5% of these signals below 2.90); values are not corrected for it. For each scFv, signals with the empty controls are counted beside the result, with their mean in brackets.

| changes | log10 Kd (nM) by replicate | empty controls |
|---|---|---|
| F95E/V97S/F98M | 1.74 2.00 0.85 | 2 of 9 (3.49) |
| S92D/Q96K/F98M | 4.13 3.75 3.08 | 2 of 9 (4.25) |
| E23I/P54H/S55C | 3.43 3.13 3.63 | 3 of 9 (3.91) |
| S88E | 1.98 2.03 1.47 | 2 of 9 (3.77) |
| A32Q/G49R/F95H | 3.97 3.88 3.95 | 4 of 9 (4.26) |
| G49L/K50C/F98W | ND 3.07 ND | 0 of 9 |
| E23N/Y31Q/Q96W | 1.51 1.61 1.31 | 4 of 9 (3.56) |
| Y29W/G49S/D91Q | ND 5.12 ND | 6 of 9 (3.96) |
| G24I/N52A/S88P | 2.89 2.78 2.42 | 5 of 9 (3.74) |
| Y31Q/S55K | 1.28 1.22 0.75 | 1 of 9 (4.03) |
| Y31V/G49V/S92R | 4.28 2.63 4.13 | 6 of 9 (4.22) |
| N33F/S93I | 4.60 3.42 ND | 3 of 9 (4.51) |
| S88F/Q96W/V97R | 4.27 ND 4.40 | 3 of 9 (3.70) |
| G24M/S88R/F95Y | ND ND ND | 0 of 9 |
| G49Q/S55W/G94T | 3.43 3.12 3.68 | 4 of 9 (4.15) |
| D25K/Y31F/S55H | 2.81 2.24 2.11 | 1 of 9 (2.45) |
| S26G/S88M/G94C | 2.20 1.76 2.26 | 2 of 9 (4.45) |
| R53I/F95Q | 2.48 2.97 2.47 | 2 of 9 (3.80) |
| Q96L | 2.34 2.58 3.97 | 2 of 9 (4.25) |
| A32C/N52S/S93P | 2.49 2.66 2.50 | 5 of 9 (3.40) |
| Y31Q/N52A | 1.26 1.34 0.86 | 6 of 9 (3.67) |
| L27W/K50F/S89R | ND 4.06 4.40 | 3 of 9 (4.26) |
| E23V/S26I/F98S | ND 4.20 3.76 | 0 of 9 |
| A32I/R53F/S89F | ND 4.50 ND | 1 of 9 (3.84) |
| Y30S/S93F | 2.26 2.47 2.75 | 6 of 9 (3.90) |
| D25A/Y30E/V97K | 1.52 1.57 1.25 | 4 of 9 (4.22) |
| L27R/A32K/N33C | 2.69 2.61 2.98 | 1 of 9 (4.03) |
| D25L/N51E/P54V | 2.53 2.34 1.89 | 1 of 9 (3.57) |
| A32H/N51Y/F95E | ND ND ND | 0 of 9 |
| S88A/Q96F/V97S | 3.13 5.41 ND | 3 of 9 (3.14) |
| S88N/V97R | 2.11 2.29 1.69 | 1 of 9 (4.04) |
| R28I/V97F | 2.69 3.11 3.11 | 4 of 9 (4.26) |
| Y30C/R53Y/Q96F | ND ND ND | 1 of 9 (3.10) |
| R28F/N52A/F95K | 2.72 2.58 3.88 | 1 of 9 (3.39) |
| S89W/Q96E/V97W | 3.02 2.81 2.46 | 4 of 9 (4.13) |
| Y30G/R53V/R90P | ND 3.61 ND | 1 of 9 (3.42) |
| R28W/P54W/Q96D | ND ND ND | 2 of 9 (3.37) |
| L27F/Y31P/N52C | 2.58 2.11 2.62 | 2 of 9 (3.86) |
| R53L/F98I | 3.05 2.41 2.44 | 3 of 9 (3.92) |
| A32D/K50V/F98T | ND ND 3.76 | 3 of 9 (4.20) |
| P54W/R90V | 2.88 4.71 ND | 3 of 9 (3.42) |
| S26M/G49C/R53E | 3.61 ND 4.03 | 5 of 9 (4.08) |
| S26D/N51G/G94M | 4.07 ND ND | 1 of 9 (5.03) |
| N33A/G49I/F98E | ND ND ND | 2 of 9 (3.30) |

A selection of 2 entries from above:

| changes | log10 Kd (nM) by replicate | empty controls |
|---|---|---|
| E23I/P54H/S55C | 3.43 3.13 3.63 | 3 of 9 (3.91) |
| Y31V/G49V/S92R | 4.28 2.63 4.13 | 6 of 9 (4.22) |

Reference: Engelhart et al. 2022, doi:10.1038/s41597-022-01779-4. File: FLAb, binding data.